# Assay: logP determination (neutral / HCOOH)
substance,measurement,value
2-(6-cyanopyridin-2-yl)-3-dimethylaminoallylidene]dimethylammonium hexafluorophosphate,logP (HCOOH),-0.07
